scFv variants of Ab-14 (heavy chain) against a SARS-CoV-2 spike peptide

Target: peptide PDVDLGDISGINAS, taken from heptad repeat 2 (HR2) of SARS-CoV-2 spike.

The variants keep the light chain, the linker and the frameworks of Ab-14 (scFv order VH, a (GGGGS)3 linker, VL).
VH: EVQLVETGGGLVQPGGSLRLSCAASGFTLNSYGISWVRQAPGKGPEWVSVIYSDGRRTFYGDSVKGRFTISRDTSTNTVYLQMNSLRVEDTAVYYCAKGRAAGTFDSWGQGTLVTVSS
VL: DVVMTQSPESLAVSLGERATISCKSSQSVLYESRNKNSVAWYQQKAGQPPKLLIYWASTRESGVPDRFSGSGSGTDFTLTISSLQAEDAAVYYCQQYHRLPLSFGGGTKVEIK

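The starting antibody came from a phage panning campaign against this peptide. Library AAYL49 holds single substitutions and randomly drawn double and triple substitutions in the CDRs. AlphaSeq pools MATa yeast showing the antibodies with MATalpha yeast showing the peptide. Binding brings cells together so that they mate, and sequencing counts the barcode pairs among the diploids. Read counts were normalised to the haploid input and turned into Kd by a linear fit to BCL2-family pairs of known affinity, for each replicate. Each pool was mated in three replicate cultures.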

Each variant is given by its three heavy chain CDRs, as the data file delimits them; those of the parent are GFTLNSYGIS, VIYSDGRRTFYGDSVK, GRAAGTFDS. All variants listed here change F27 of the VH, counted from its first residue. Kd is apparent (estimated from mating counts) and averaged on the log scale over replicates with a signal. Smaller is tighter. Where no diploid with the target was found in any replicate, the entry reads "no signal": below detection, most likely a poor binder, though not proof of it. Background: pairings of library AAYL49 with three empty control strains gave a value in 15% of cases (median 11 µM, 5th percentile 680 nM). Values in that range, when seen in few replicates, are hard to tell from nonspecific mating. For each scFv, signals with the empty controls are counted beside the result. For reference, the parent read 4.4 nM as the reference entry and 13 µM (one replicate of three) as a member of this library.

With GVTLNSYGIS | VIYSDGRSTFYGDSVK | GRAAGLFDS the result was no signal (0 of 3 replicates; controls 0 of 9). For GATLNSYGIS | VIYSDGRDTFYGDSVK | GRAAGPFDS, the assay gave 6.0 µM (1 of 3 replicates; controls 0 of 9). The variant GSTLNSYWIS | VIYSDGRRTFYGDSVK | GRYAGTFDS gave no signal (0 of 3 replicates; controls 0 of 9). For GNTLNDYGIS | VIYSDGRRVFYGDSVK | GRAAGTFDS, the assay gave 230 nM (3 of 3 replicates; controls 0 of 9). The variant GLTLNSYGIS | VIYPDGRRTFYGDSVK | GRATGTFDS gave no signal (0 of 3 replicates; controls 0 of 9). The variant GCTLNSYGIS | VIYSDGRRTFYGDSVK | GRAAGTFDY showed no signal (0 of 3 replicates; controls 0 of 9).

The variant GVTLNSYGIS | VIYSDGRRNFIGDSVK | GRAAGTFDS showed no signal (0 of 3 replicates; controls 0 of 9). With GDTLNSDGIS | VIESDGRRTFYGDSVK | GRAAGTFDS the result was 57 µM (1 of 3 replicates; controls 3 of 9). The variant KLTLNSYGIS | VIYSDGRRTFYGDSVK | GRAAGTFDS gave 41 nM (3 of 3 replicates; controls 1 of 9). With GHTLNSYGIN | VIYSDGRRHFYGDSVK | GRAAGTFDS the result was 44 µM (1 of 3 replicates; controls 2 of 9). With GVTLNSYGIS | VIYSDGRRTFYGDSVK | GNAAGTFAS the result was 270 µM (3 of 3 replicates; controls 2 of 9). For GGTLNFYGIS | VIYSDGRRTFYGDSVS | GRAAGTFDS, the assay gave 320 nM (3 of 3 replicates; controls 2 of 9).

The variant GQTLNSYGIS | VIYSDGRRTFYGDSVK | GRCAGIFDS gave 42 µM (2 of 3 replicates; controls 6 of 9). With GYTLNSYGIS | VIYSDGRRAFYGDSVK | GRAAGTFDM the result was 15 µM (2 of 3 replicates; controls 3 of 9). The variant GVTLNSYGWS | VIYSDGRRTFYGDSVK | GRAAGTFDQ gave 2.5 µM (3 of 3 replicates; controls 0 of 9). The variant GRTLNSYGIS | VICRDGRRTFYGDSVK | GRAAGTFDS gave 37 µM (2 of 3 replicates; controls 4 of 9). The variant GMTLNSYGIS | VIYSDGRQTFYGNSVK | GRAAGTFDS gave no signal (0 of 3 replicates; controls 0 of 9). The variant HLTLNSYGIS | VIYSDGRRTFYGDSVK | GRAAGTWDS showed no signal (0 of 3 replicates; controls 1 of 9).

With GATLNSWGIS | VIYSDGRRTNYGDSVK | GRAAGTFDS the result was no signal (0 of 3 replicates; controls 1 of 9). With GVTLNSYLIS | VIYSDGRRTFYGDSVK | GRAAGTFDS the result was 6.4 µM (2 of 3 replicates; controls 2 of 9). For GQTLNSYGIS | VIYSDKRRCFYGDSVK | GRAAGTFDS, the assay gave 96 µM (1 of 3 replicates; controls 1 of 9). The variant GYTLNEYGIS | VIYSDGRRTFYGDSVK | GRAAGTFLS gave 460 nM (3 of 3 replicates; controls 4 of 9). The variant GITLNSYGCS | VIYSDGRRTHYGDSVK | GRAAGTFDS showed 32 µM (2 of 3 replicates; controls 4 of 9). The variant GNTLNTYGIS | VIYSDGRRTFYGDSCK | GRAAGTFDS gave 220 nM (3 of 3 replicates; controls 1 of 9).

The variant GCNLNSYGIS | VIYSDGRRTFYGDSVK | HRAAGTFDS showed 7.4 µM (1 of 3 replicates; controls 4 of 9). The variant ILTLNSYGIS | VIYSLGRRTFYGDSVK | GRAAGTFDS showed 1.5 µM (1 of 3 replicates; controls 2 of 9). With IPTLNSYGIS | VTYSDGRRTFYGDSVK | GRAAGTFDS the result was 82 µM (1 of 3 replicates; controls 4 of 9). The variant GNTLNPYGIS | VIYSSGRRTFYGDSVK | GRAAGTFDS gave 600 nM (1 of 3 replicates; controls 1 of 9). For GGTLNSDGIS | VIYSDGRRTFYGDSVK | GRCAGTFDS, the assay gave 14 µM (1 of 3 replicates; controls 3 of 9). The variant GGTLNSYGIS | VIYSDGRRTFYGCSVK | GRAAGTFDS gave no signal (0 of 3 replicates; controls 0 of 9).

The variant GGTLNSYGIS | VIYSDGRRTFYGFSMK | GRAAGTFDS gave no signal (0 of 3 replicates; controls 1 of 9). With GITLNSYGIS | VIYSDGRRIFIGDSVK | GRAAGTFDS the result was 25 µM (2 of 3 replicates; controls 3 of 9). With GATLNSYGIS | VGYSDGRRTFYGDSVK | PRAAGTFDS the result was 8.9 µM (1 of 3 replicates; controls 1 of 9). For GSTLNSYGIS | VYYSDGRRTFYGDSVK | GRAAGTADS, the assay gave 530 µM (2 of 3 replicates; controls 6 of 9). The variant GTTLNSYKIS | VIYSDGRRTFYGDSVK | ERAAGTFDS gave no signal (0 of 3 replicates; controls 0 of 9). With GDTLNSYGIS | VIYSYGRRTFYGDSVK | GIAAGTFDS the result was 13 µM (2 of 3 replicates; controls 2 of 9).

The last 4 entries again:

Variant GATLNSYGIS | VGYSDGRRTFYGDSVK | PRAAGTFDS showed 8.9 µM (1 of 3 replicates; controls 1 of 9).
Variant GSTLNSYGIS | VYYSDGRRTFYGDSVK | GRAAGTADS showed 530 µM (2 of 3 replicates; controls 6 of 9).
Variant GTTLNSYKIS | VIYSDGRRTFYGDSVK | ERAAGTFDS showed no signal (0 of 3 replicates; controls 0 of 9).
Variant GDTLNSYGIS | VIYSYGRRTFYGDSVK | GIAAGTFDS showed 13 µM (2 of 3 replicates; controls 2 of 9).

Data: MIT Lincoln Laboratory AlphaSeq set, Engelhart et al. 2022, doi:10.1038/s41597-022-01779-4, as distributed in FLAb.